System: iPSCs derived immature neurons
Settings: glutamate 10 mM up to 30 mM, 24 hours; CONTROL, SAD, FAD neurons; dose-dependently

Question: With glutamate as the substance, how does the “cell viability (MTT reduction)” value read?
Answer: The value was “significant cell damage”.
